# System: HeLa cells with PLK1 point mutations
# Experiment: Pooled ssODN point-mutation validation, BI2536 resistance (MTT viability)
# Assay type: cell-based
# Settings: PLK1 point mutation at R136, F183 or C67, pooled assay; BI2536 10 ng/ml, 72 hour; FIG. 10D
smiles,measurement,value
CC[C@@H]1C(=O)N(C)c2cnc(Nc3ccc(C(=O)NC4CCN(C)CC4)cc3OC)nc2N1C1CCCC1 [BI2536],cell susceptibility to BI2536,conferred BI2536 resistance
